Converted amounts (≈) assume the structure as drawn.
For `COC(=O)N(C)C(=O)CSP(C)(=S)OC` (stereo unspecified), the solubility was 11.1 mM (≈ 3000 µg/mL).

— the OPERA property sets (Mansouri et al. 2018)
